Measured values as given in US8258256B2, “Compositions and methods for the treatment of cancer” (The Johns Hopkins University, priority 2006, dated 2012).

Legend:
[1] = tested on: PSMA-negative (PC-3, DU145) human prostate cancer cells; assay: Fluorescent peptide binding to PSMA-negative prostate cancer cells (confocal microscopy); assay type: cell-based; conditions: fluorescent labeled peptide
Experimental: (§1) FIG. 5 depicts dimeric WQPDTAHHWATL (SEQ ID NO:1) peptide binds selectively to PSMA-producing prostate cancer cells. Attached PSMA-positive (LNCaP, CWR22R) and PSMA-negative (PC-3, DU145) human prostate cancer were prelabeled with Orange Cell Tracker (Invitrogen) at 2.5 μM in RPMI for 30 mins. After washing with Hanks balanced salt solution, cells were incubated with FITC-labeled monomeric (50 μM) or dimeric (5 μM) WQPDTAHHWATL (SEQ ID NO:1) peptide in 1% fetal calf serum containing media for 1 hr. Cells were washed 3 times with PBS and fixed with 1% Formalin for ½ hr at room temperature. Cells were visualized using Zeiss Meta 510 confocal microscope at 20× magnification. Top panels show orange cell tracker labeled cells (rhodamine filter set); middle panels show labeled peptide binding (FITC filter set); bottom panel show overlay of both panels.
(§2) Binding of WQPDTAHHWATL (SEQ ID NO:1) peptides to PSMA-expressing cell lines—To analyze peptide binding to membrane bound PSMA, fluorescently labeled peptides were synthesized by coupling FITC to the C-terminus of either the monomeric or dimeric peptide. […] In contrast, cell binding of the dimeric WQPDTAHHWATL (SEQ ID NO:1) peptide could be easily visualized at concentrations as low as 5 μM, FIG. 5. Labeled, dimeric peptide bound to a similar degree to both CWR22R and LNCAP.

[2] = tested on: PSMA-positive (LNCaP, CWR22R) human prostate cancer cells; assay: Fluorescent peptide binding to PSMA-positive prostate cancer cells (confocal microscopy); assay type: cell-based; conditions: FITC-labeled peptide tested at 1, 5, 10, 50 μM; 1% fetal bovine serum media, 1 hr
Experimental: as §1, §2

Substance: FITC-labeled dimeric WQPDTAHHWATL peptide: fluorescently labeled peptide made by coupling FITC to the C-terminus of the dimeric peptide
- binding above background to non-PSMA expressing prostate cancer cells [1]: no significant binding
- peptide concentration at which cell binding could be visualized [2]: 5 µM
